Results: PubChem BioAssay AID504577 (NMMLSC, 2011)
This is a selection; strong and weak results do not stand in their true shares. The source made the active and inactive calls. No stated cut-off is given here; in the data, active means response mostly above about 7.3% (no sharp cut-off); inactive means mostly below about 5.4%.

Experiment: regulators of yeast V-ATPase proton pumping, primary screen, pHLuorin cytosolic pH fluorescence (AID 504577); further: actives read high
Conditions: S. cerevisiae, at 10 µM, stronger effect = higher value

Which response does the source give for `CN(C)CCOC(=O)C(O)(c1ccccc1)C1CCCCC1` (stereo unspecified) here?
Its response is inactive: -6.91%.
